Assay results as given in ChEMBL document CHEMBL1130156, “Evolution of the Dmt-Tic pharmacophore: N-terminal methylated derivatives with extraordinary delta opioid antagonist activity” (J Med Chem, 1997).

Chains of the proteins cited; added tags and fusions are not shown.
UniProt P33533, whole entry, looked up: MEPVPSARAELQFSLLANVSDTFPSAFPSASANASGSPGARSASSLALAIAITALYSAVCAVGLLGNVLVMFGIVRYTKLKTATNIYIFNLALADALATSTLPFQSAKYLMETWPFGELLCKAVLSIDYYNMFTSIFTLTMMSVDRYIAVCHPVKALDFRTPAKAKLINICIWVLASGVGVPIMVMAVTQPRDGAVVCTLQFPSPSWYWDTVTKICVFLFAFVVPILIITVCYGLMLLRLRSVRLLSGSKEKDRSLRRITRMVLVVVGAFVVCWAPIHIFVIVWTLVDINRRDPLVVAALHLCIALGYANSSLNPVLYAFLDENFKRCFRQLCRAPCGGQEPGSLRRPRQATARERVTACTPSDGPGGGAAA
UniProt P33535, whole entry, looked up: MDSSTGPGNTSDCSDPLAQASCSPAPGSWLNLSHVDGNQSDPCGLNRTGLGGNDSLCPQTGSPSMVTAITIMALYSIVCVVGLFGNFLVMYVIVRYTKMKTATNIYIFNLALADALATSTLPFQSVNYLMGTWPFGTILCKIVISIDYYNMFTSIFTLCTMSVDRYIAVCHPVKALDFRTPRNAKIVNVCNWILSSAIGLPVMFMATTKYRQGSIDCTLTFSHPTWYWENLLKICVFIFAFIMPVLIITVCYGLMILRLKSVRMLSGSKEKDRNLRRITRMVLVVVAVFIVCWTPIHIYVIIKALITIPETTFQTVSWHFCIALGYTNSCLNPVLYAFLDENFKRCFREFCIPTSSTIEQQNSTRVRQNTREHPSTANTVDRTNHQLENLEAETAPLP

Molecular target: Opioid receptors; mu & delta (Rattus norvegicus) (UniProt P33533+P33535)
Test: Ratio of the affinity for delta and mu opioid receptors (Ki mu/Ki delta) shows delta opioid receptor selectivity
Assay type: protein assay

`Cc1cc(O)cc(C)c1C[C@H](N)C(=O)N1Cc2ccccc2CC1C(N)=O` (stereo partly specified) was tested, and the Ratio was 227.
